{"source": "ChEMBL document CHEMBL3351775", "about": "“Design, synthesis and anti-HIV evaluation of novel diarylnicotinamide derivatives (DANAs) targeting the entrance channel of the NNRTI binding pocket through structure-guided molecular hybridization” (Eur J Med Chem, 2014)", "target": "Human immunodeficiency virus type 1 reverse transcriptase (Human immunodeficiency virus 1) (UniProt Q72547)", "assay": "Potency index, ratio of IC50 for nevirapine to IC50 for test compound for inhibition of HIV1 reverse transcriptase"}
{"smiles": "Cc1cc(C)c(Oc2cc(Nc3ccc(C#N)cc3)ncc2C(N)=O)c(C)c1", "values": [{"measurement": "Ratio IC50", "value": 31}]}
